The values that follow come from ChEMBL document CHEMBL1126720 (J Med Chem, 1993).

Some compounds may have been tested in ways that are not shown here.

The nature of the assay: Growth inhibition against CHO-derived cell line AA8. It is filed as functional, cell-based, Cricetulus griseus. The essentials: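 Log-phase AA8 (200 viable cells/well) or UV4 (300 viable cells/well) cells with 5000 lethally irradiated AA8 feeder cells per well, in α-MEM with 10% heat-inactivated fetal calf serum. Cell mass read after 72-78 h by methylene blue protein staining and absorbance. IC50 = concentration reducing cell mass to 50% of the mean of 8 same-plate controls; means of at least 3 determinations ± SEM. Hypersensitivity factor = aerobic IC50(AA8)/IC50(UV4).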

Usually IC50 stands for the point on the concentration scale where inhibition reaches its midpoint. Low values mean inhibition by little substance, high ones a need for much substance. Turning to `NCCN(CCCl)CCCl`, the IC50 was 1500 nM.
